Assay results as given in PMC10500568, “Inhibition of MurA Enzyme from Escherichia coli by Flavonoids and Their Synthetic Analogues” (ACS Omega, 2023).

By UniProt entry, the sequences of proteins in these tests, tags left out. Where a name states a change or a piece, a line headed by the entry shows the natural chain unless it says otherwise.
UniProt P0A749: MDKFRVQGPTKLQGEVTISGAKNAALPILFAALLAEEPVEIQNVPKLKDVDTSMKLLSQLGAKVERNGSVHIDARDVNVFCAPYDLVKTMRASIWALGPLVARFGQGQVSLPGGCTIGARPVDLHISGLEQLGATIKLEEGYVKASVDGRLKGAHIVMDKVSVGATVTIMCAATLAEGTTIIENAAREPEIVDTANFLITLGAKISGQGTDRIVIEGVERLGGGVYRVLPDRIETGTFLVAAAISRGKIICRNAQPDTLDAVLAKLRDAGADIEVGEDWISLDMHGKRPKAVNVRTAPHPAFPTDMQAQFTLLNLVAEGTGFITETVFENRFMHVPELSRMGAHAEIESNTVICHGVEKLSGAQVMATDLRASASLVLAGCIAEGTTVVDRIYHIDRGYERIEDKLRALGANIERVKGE

Biological target: MurA enzyme from E. coli (Escherichia coli, UniProt P0A749)
Assay: MurA inhibition assay (malachite green, orthophosphate release)
Format: biochemical
Conditions: 30 min preincubation
Method: To determine the inhibition of MurA, the colorimetric assay with malachite green was used to measure the release of orthophosphate generated during the reaction.[30] […] Time-dependent inhibition assays were also performed by preincubating MurA with the 200 μM UNAG substrate and target compounds for 30 min at 37 °C before starting the reaction with the addition of the second substrate 100 μM PEP, resulting in a final mixture volume of 50 μL. The reaction was stopped after a 15 min incubation at 37 °C by adding the Biomol reagent (100 μL, Enzo Life Sciences, New York), and the absorbance was measured after 5 min at 650 nm using a microplate reader (BioTek, Synergy H4). The final concentration of DMSO in the reaction mixture was 5% (v/v), and 1 μM fosfomycin was used as a reference in the MurA assay. The percentage of residual activity was calculated in comparison to the negative controls, which contained only 5% DMSO. IC50 values were determined by measuring residual activities at 7 different concentrations of the compounds and calculated using GraphPad Prism (GraphPad Software, San Diego, California).
The initial screening of flavonoids was performed under three different assay conditions: (1) without preincubation, (2) with a 30 min preincubation, and (3) with the addition of dithiothreitol (DTT) along with a 30 min preincubation. […]

## myricitrin [Compound 5]
  IC50: 2.4 µM
